1 compound from article PMC3032881 (Molecular Immunology, 2011) can be followed below.

The target in this experiment is T1, HLA A*0201 (soluble recombinant pMHCI) (Homo sapiens, UniProt P04439, D140Y/D185E/D98H/E176V/E277Q/G131W/G231S/I119V/I121R/I166T/I218V/L300P/L318F/N151K/N90K/P208A/P217A/Q86G/Q94H/R138H/R169H/T345S).
T1 construct: made in house
The experiment in a line: Real time SPR pMHC stability assay. It is filed as binding.

Regarding `CC(C)C[C@H](NC(=O)[C@@H](N)Cc1ccc(O)cc1)C(=O)N[C@@H](CCC(=O)O)C(=O)N1CCC[C@H]1C(=O)NCC(=O)N1CCC[C@H]1C(=O)N[C@H](C(=O)N[C@@H](C)C(=O)O)C(C)C`, the “Koff” value amounted to 330000 s⁻¹.
